Assay results published in PubChem BioAssay AID504692 (The Scripps Research Institute Molecular Screening Center, 2011).
Only a part is listed here, and it is no random draw. Calls of active or inactive are those of the source. Rule as the data show it: active = activation mostly above about 9.5% (no sharp cut-off); inactive = mostly below about 7.6%.

Amino acid sequences for entries named in this document (tags omitted).
UniProt P47898, whole entry, looked up: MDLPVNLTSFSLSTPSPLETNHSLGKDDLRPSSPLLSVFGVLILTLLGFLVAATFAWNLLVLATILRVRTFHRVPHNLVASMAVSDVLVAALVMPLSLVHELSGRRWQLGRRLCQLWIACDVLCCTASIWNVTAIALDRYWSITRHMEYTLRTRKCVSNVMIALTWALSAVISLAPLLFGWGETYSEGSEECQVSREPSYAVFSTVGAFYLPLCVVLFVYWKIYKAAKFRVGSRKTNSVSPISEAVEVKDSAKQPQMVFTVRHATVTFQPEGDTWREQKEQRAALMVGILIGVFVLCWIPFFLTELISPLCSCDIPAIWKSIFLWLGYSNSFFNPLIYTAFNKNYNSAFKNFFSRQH

Biological target: 5-hydroxytryptamine receptor 5A (Homo sapiens) (UniProt P47898)
Assay: HTR5A agonists in luminescence cell assay, primary screen, counter-screen for OPRM1-OPRD1 heterodimer agonist project, full-deck HTS (AID 504692);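 also: 0% = cells with vehicle only and 100% = reference agonist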
Settings: cell-based, at 9.3 µM, active compounds read high

SMILES	activation
CN1CCC(N(C)c2nc(-c3ccc([N+](=O)[O-])cc3)nc3ccccc23)CC1	inactive: 9.65%
Cc1ccc2c(c1)C1CN(C)CCC1N2S(=O)(=O)c1ccccc1F (stereo not given)	inactive: -1.05%
N=c1n(CCCOc2ccc(Br)cc2)c2ccccc2n1CC(N)=O	inactive: -1.05%
O=C(Cn1c2[n+](c3ccc(C(F)(F)F)cc31)CCCCC2)Nc1ccc(Br)cc1	inactive: -3.34%
CC(O)c1nc2ccccc2n1CC(=O)Nc1ccc(F)cc1Cl (stereo not given)	inactive: 5.67%
COc1ccc(NC(=O)Cn2c(NCC(C)O)nc3ccccc32)cc1Cl (stereo not given)	inactive: -2.46%
CC(C)CN(C(=O)Cn1c(Cl)nc2c1c(=O)n(C)c(=O)n2C)C1CCS(=O)(=O)C1 (stereo not given)	inactive: -1.07%
COc1ccc(CCNC(=O)[C@H](CCSC)NC(=O)N2CCn3c2nc2ccccc23)cc1OC	inactive: -3.98%
Cc1ccc2nc3c(c(C)c2c1)CC(C(Cl)Cl)S3 (stereo not given)	inactive: -3.04%
CSc1nc(N)nc2c1ncn2CC(=O)N[C@H](C)c1cccc2ccccc12	inactive: 2.33%
CN(C)CCn1cnc2c1c(=O)n(C)c(=O)n2C	inactive: -1.59%
COc1ccc(S(=O)(=O)N2CCCCC2)cc1NC(=O)Cn1cnc2c1c(=O)n(C)c(=O)n2C	inactive: 1.93%
O=C(Cn1c(C(F)(F)F)nc2ccccc21)N/N=C/c1ccco1	inactive: -2.69%
Cn1c(=O)c2c(nc(N3CCOCC3)n2CCNC2=NCCC2)n(C)c1=O	inactive: 1.06%
CCOC(=O)Cn1c(=O)c2c(nc3n2CCN3Cc2ccccc2)n(C)c1=O	inactive: 1.05%
Fc1ccc2c(c1)nnn2C1CCN(Cc2ccccc2)CC1	inactive: -1.04%
Cc1ccc(OP(=O)(Nc2ccc([N+](=O)[O-])cn2)Oc2ccc(C)cc2)cc1	inactive: 2.53%
COC(=O)[C@H](CCSC)NC(=O)Cn1cnc2c(NCc3ccccc3)ncnc21	inactive: -0.15%
CC(Cc1ccc(O)cc1)NCC(O)c1cc(O)cc(O)c1 (stereo not given)	inactive: 0.5%
COc1ccc(/C=N/NC(=O)Cn2c(Cc3ccc(OC)c(OC)c3)nc3ccccc32)cc1	inactive: 0.87%
Brc1ccc(CNc2nc3ccccc3n2CCN2CCCCC2)cc1	inactive: -4.24%
Cc1ccc2c(c1)C1CN(C)CCC1N2S(=O)(=O)c1ccc(C#N)cc1 (stereo not given)	inactive: -2.46%
Cc1nn2c3ccccc3n(CCN3CCCCC3)c2nc1=O	inactive: 0.44%
FC(F)(F)c1ccc2c(c1)ncn2C1CCN(Cc2nnnn2C2CCCCC2)CC1	inactive: 1.29%
Nc1nc2ccccc2n1CCN1CCCC1	inactive: -1.63%
